# Values quoted from earlier work, collected in patent publication US8211906B1, “Method of inhibiting growth of neoplastic cells and inhibiting infection by administering an immune enhancer drug” (priority 2003, dated 2012).
# Where a name gives a salt, the structure may show the parent alone.
# Test system: herpes simplex virus
# Details: hydrochloride solution injected subcutaneously in mice; cited from earlier work
smiles,measurement,value
CC(C)Cn1cnc2c(N)nc3ccccc3c21 [imiquimod hydrochloride],effect on activity of vaccine against herpes simplex virus,enhanced the activity
